# Assay: Serum stability test
# Assay type: in vitro ADME, human
smiles,measurement,setting,value
CC[C@H](C)[C@H](NC(=O)[C@H](CCCCN)NC(=O)[C@@H](NC(=O)[C@H](CCC(N)=O)NC(=O)[C@@H](N)CCCNC(=N)N)[C@@H](C)CC)C(=O)N[C@@H](Cc1c[nH]c2ccccc12)C(=O)N[C@@H](Cc1ccccc1)C(=O)N[C@@H](CCC(N)=O)C(=O)N[C@@H](CC(N)=O)C(=O)N[C@@H](CCCNC(=N)N)C(=O)N[C@@H](CCCNC(=N)N)C(=O)N[C@@H](CCSC)C(=O)N[C@@H](CCCCN)C(=O)N[C@@H](Cc1c[nH]c2ccccc12)C(=O)N[C@@H](CCCCN)C(=O)N[C@@H](CCCCN)C(=O)O [Antp],state of peptide after 2 h in serum,"25% human serum, 37 °C, 5 µM, reversed-phase HPLC",completely digested
same,half-life,"human, 25% human serum (supernatant after centrifugation)",< 20 min
